The values that follow come from PubChem BioAssay AID2528 (National Center for Advancing Translational Sciences (NCATS), 2010).

Amino acid sequences for entries named in this document (tags omitted).
UniProt P54132, whole entry: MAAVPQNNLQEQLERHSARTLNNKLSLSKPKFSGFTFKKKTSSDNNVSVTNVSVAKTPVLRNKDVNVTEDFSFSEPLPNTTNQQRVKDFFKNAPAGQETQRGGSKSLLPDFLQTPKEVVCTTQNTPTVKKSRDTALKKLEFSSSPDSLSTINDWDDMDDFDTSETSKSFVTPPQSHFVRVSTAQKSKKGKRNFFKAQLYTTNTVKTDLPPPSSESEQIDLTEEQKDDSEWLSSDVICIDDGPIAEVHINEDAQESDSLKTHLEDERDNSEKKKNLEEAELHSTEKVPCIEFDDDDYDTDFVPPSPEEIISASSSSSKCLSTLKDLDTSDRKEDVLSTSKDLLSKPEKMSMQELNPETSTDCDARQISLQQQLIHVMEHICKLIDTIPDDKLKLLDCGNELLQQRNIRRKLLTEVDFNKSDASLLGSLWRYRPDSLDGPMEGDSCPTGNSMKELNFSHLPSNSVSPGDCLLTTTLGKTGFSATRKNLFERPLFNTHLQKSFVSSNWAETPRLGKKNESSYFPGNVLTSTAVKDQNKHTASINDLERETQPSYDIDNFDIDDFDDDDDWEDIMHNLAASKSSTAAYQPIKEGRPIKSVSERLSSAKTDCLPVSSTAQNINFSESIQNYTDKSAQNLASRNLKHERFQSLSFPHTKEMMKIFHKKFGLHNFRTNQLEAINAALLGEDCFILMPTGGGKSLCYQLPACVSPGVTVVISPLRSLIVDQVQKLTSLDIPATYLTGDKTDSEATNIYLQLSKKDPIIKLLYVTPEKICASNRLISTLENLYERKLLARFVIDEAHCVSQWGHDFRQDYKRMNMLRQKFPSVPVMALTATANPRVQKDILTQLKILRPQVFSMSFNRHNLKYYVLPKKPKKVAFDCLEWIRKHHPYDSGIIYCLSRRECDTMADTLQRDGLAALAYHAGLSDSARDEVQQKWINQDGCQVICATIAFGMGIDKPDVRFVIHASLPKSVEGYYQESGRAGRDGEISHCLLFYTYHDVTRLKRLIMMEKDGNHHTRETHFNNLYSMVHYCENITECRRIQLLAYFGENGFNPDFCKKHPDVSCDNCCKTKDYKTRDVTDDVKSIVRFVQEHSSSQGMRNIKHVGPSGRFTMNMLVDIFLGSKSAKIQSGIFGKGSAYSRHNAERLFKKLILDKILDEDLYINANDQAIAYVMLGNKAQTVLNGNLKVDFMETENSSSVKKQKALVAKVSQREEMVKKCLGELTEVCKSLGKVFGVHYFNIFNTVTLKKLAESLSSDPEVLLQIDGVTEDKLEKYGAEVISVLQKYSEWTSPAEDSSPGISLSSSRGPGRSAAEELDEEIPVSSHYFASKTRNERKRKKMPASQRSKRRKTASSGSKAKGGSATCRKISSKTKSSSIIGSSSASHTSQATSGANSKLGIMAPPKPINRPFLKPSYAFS

Structures are written as SMILES. Several values for one entry are separate records, joined by “and”; a condition that tells them apart may be missing. Equal entries are not always repeated. The list shows a part of the results, in another mix than the full data. Some of these compounds have results that are not shown, active ones among them. Activity calls are given as the source filed them. Calls follow the shape of the dose curve; as a rule, active = well fitted inhibition curve with a large enough effect; inconclusive = small, poorly fitted or top-dose-only effect; inactive = flat fitted curve, though single readings scatter.

For this experiment, the target named is RecQ-like DNA helicase BLM (Homo sapiens) (UniProt P54132). As to the kind of experiment: qHTS Assay for Inhibitors of Bloom's syndrome helicase (BLM).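 Also: plate controls were vehicle for no effect and no enzyme for full effect; nearly all actives have a fitted effect of over 35% in size.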 The following applies: recombinant BLM DNA unwinding, fluorescence dequenching; at 56.1 µM (top of the series). In general terms: In qHTS, concentration-response curves come from the screen itself.
For `O=C(NCC1(N2CCCCC2)CCCCC1)c1cccc(Br)c1`, the activity change, negative = inhibition is inactive: -1.84%.
Next, `CCN1CCCC(OC(=O)C2(O)c3ccccc3C=Cc3ccccc32)C1` (stereo not given): inactive: 4.34%; `Cc1cc(C(=O)NCC2(N3CCCCC3)CCCCC2)ccc1[N+](=O)[O-]`: inactive: -3.31%; `CCOc1cccc(C(=O)NCC2(N(C)C)CCCCC2)c1`: inactive: 0.89%.
Next, `COc1ccc(C(=O)NCC2(N(C)C)CCCCC2)cc1`: inactive: -2.76%; `O=C(NCC1(N2CCCCC2)CCCCC1)c1cc(F)c(F)cc1Cl`: inactive: 1.31%.
With `C=CCN1CCN(CCOC(=O)C(O)(c2ccccc2)c2ccccc2)CC1`, the activity change, negative = inhibition was inactive: 1.18%.
In the case of `CN1CCCC(OC(=O)C(O)(c2ccccc2)c2ccccc2)C1` (stereo not given) it was inactive: -0.0408%; in that of `CCCCOc1ccccc1C(=O)NCC1(N(C)C)CCCCC1`, inactive: 3.17%; in that of `CN(C)c1ccc(C(=O)NCC2(N(C)C)CCCCC2)cc1`, inactive: 1.15%.
Next, `CN(C)C1CCCC1OC(=O)C(O)(c1ccccc1)c1ccccc1` (stereo not given): inactive: -0.285%.
Next, `Cc1ccccc1C(=O)NCC1(N2CCCCC2)CCCCC1`: inactive: 2.68%; `CN(C)C1(CNC(=O)c2ccccc2[N+](=O)[O-])CCCCC1`: inactive: -0.0535%; `CN(C)C1(CNC(=O)c2ccccc2F)CCCCC1`: inactive: 1.43%.
Turning to `Cc1ccc(C(=O)NCC2(N3CCCCC3)CCCCC2)cc1`, the activity change, negative = inhibition is inactive: -0.72%.
Next, `CC(C)N1C(=O)CC2(CCN(CCOC(=O)C(O)(c3ccccc3)c3ccccc3)CC2)C1=O`: inactive: -2.62%.
In the case of `COc1cc(SC)ccc1C(=O)NCC1(N(C)C)CCCCC1` it was inactive: 2.51%.
As to `CCN(CC)CC(C)C(C)OC(=O)C(O)(c1ccccc1)c1ccccc1` (stereo not given), the activity change, negative = inhibition was inactive: 1.74%.
Next, `CN(C)C1(CNC(=O)c2cccc(Cl)c2)CCCCC1`: inactive: 0.186%; `CN1[C@@H]2CC[C@H]1CC(OC(=O)C(O)(c1ccccc1)c1ccccc1)C2` (stereo not given in full): inactive: -1.48%; `O=C(NCC1(N2CCCCC2)CCCCC1)c1cc([N+](=O)[O-])ccc1Cl`: inactive: 1.78%.
In the case of `CN(C)c1cccc(C(=O)NCC2(N(C)C)CCCCC2)c1` it was inactive: 2.19%.
Next, `CC(C)Oc1ccc(C(=O)NCC2(N(C)C)CCCCC2)cc1`: inactive: 3.42% and inactive: -1.96%.
Consider `COc1ccc(Br)c(C(=O)NCC2(N3CCCCC3)CCCCC2)c1`, for which the activity change, negative = inhibition was inactive: 4.06%.
Consider `COc1cc(C(=O)NCC2(N(C)C)CCCCC2)cc(OC)c1OC`, for which the activity change, negative = inhibition is inactive: 3.32%.
As for `Cc1cccc(C(=O)NCC2(N(C)C)CCCCC2)c1`, the activity change, negative = inhibition is inactive: 0.384%.
In the case of `CC(C)COc1ccc(C(=O)NCC2(N(C)C)CCCCC2)cc1`, the activity change, negative = inhibition was inactive: -0.91%.
With `O=C(OC1CN2CCC1CC2)C(CO)(c1ccccc1)c1ccccc1` (stereo not given), the activity change, negative = inhibition was inactive: 1.47%.
In the case of `COc1cccc(C(=O)NCC2(N3CCOCC3)CCCCC2)c1` it was inactive: 0.561%; in that of `O=C(NCC1(N2CCCCC2)CCCCC1)c1cccc(Cl)c1`, inactive: -0.485%; in that of `COc1ccc(C(=O)NCC2(N(C)C)CCCCC2)cc1Cl`, inactive: 5.42%.
Next, `COc1ccc(Cl)cc1C(=O)NCC1(N(C)C)CCCCC1`: inactive: -1.35%; `COc1cccc(C(=O)NCC2(N3CCCCC3)CCCCC2)c1`: inactive: 1.61%; `COc1cc(C(=O)NCC2(N(C)C)CCCCC2)c([N+](=O)[O-])cc1OC`: inactive: -6.43%.
Next, `CN(C)C1(CNC(=O)c2ccc(Br)cc2)CCCCC1`: inactive: -3.54%.
